Here are results for one compound from PMC6547681 (Nature Communications, 2019).

Chains of the proteins cited; added tags and fusions are not shown. A line that says so, or that is headed by a name, gives the form on record, which may keep a tag or linker.
UniProt P10415, with tags, fused parts or gaps G101V/E152A: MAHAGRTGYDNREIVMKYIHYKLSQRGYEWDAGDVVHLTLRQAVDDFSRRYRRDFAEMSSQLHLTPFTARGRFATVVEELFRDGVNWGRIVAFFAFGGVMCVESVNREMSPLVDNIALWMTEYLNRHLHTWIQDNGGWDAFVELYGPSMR

The target in the assay is BCL-2 G101V/E152A double mutant (Homo sapiens, UniProt P10415, E152A/G101V). The assay is described as follows: Steady-state competition SPR against immobilised BIMBH3 peptide, BCL-2 G101V/E152A double mutant. The conditions noted are these: competition vs BIMBH3 SPR surface, mean ± SD, n ≥ 2, read-out: S55746 KI (mean). Format: binding. The procedure: SPR experiments were performed as previously described. […] The lowest concentrations used in direct binding experiments were 1 nM for BIAcore 4000 and 0.1 nM for BIAcore S200 instruments, concentrations below these were below the sensitivity thresholds for the instruments. […] Direct binding experiments were fitted to a 1:1 binding site kinetic model, fitting on and off rates, in BIAevaluation software. For competition experiments steady-state responses were determined in BIAevaluation software according to the software defaults in affinity evaluation mode averaging responses for 5 sec. […] All affinity measurements were performed in at least two independent experiments using independent protein preparations.

The structures appear in SMILES notation. “And” between values parts separate entries of the source, which are not always exact repeats. Equal entries are not always repeated.

With `O=C(c1cc(-c2cc3c(cc2C(=O)N2Cc4ccccc4C[C@H]2CN2CCOCC2)OCO3)n2c1CCCC2)N(c1ccccc1)c1ccc(O)cc1` [S55746], the Ki is 5.3 nM and 5.32 nM.
